The record followed here is patent publication US12533408B2, “Treatment regimen for the treatment of autoimmune disorders” (Merck Patent GmbH, priority 2020, dated 2026).

This assay has as its system IgG and IgM. Nature of the assay: Serum immunoglobulin levels (IgG, IgM) under cladribine tablets.
Setting [1] is: Patient Finland VZV-70056800221620004, month 0, 6.4 wk after Zostavax, before first Mavenclad dose.
[2] abbreviates: Patient Finland VZV-70056800221620004, month 3, 18.3 wk after Zostavax, 11.9 wk after first Mavenclad dose.
[3] abbreviates: Patient Finland VZV-70056800221620004, month 6, 32.3 wk after Zostavax, 25.9 wk after first Mavenclad dose.
Where [4] appears, read: Patient Finland VZV-70056800221620004, month 12, 61.3 wk after Zostavax, 54.9 wk after first Mavenclad dose.
Where [5] appears, read: Patient Finland VZV-70056800221620004, month 15, 74.3 wk after Zostavax, 13.0 wk after first dose of previous Mavenclad course.

Consider `Nc1nc(Cl)nc2c1ncn2[C@H]1C[C@H](O)[C@@H](CO)O1` [cladribine tablets, Cladribine], for which the IgM runs as follows: (Patient Australia VZV-70056800221260001, month 0, 8.6 wk after Zostavax, 1.3 wk before first Mavenclad dose) 71 mg/dL; under setting [1], 95 mg/dL; under setting [2], 75 mg/dL; under setting [3], 72 mg/dL; under setting [4], 73 mg/dL; under setting [5], 60 mg/dL. Besides, the IgG reads like this: under setting [1], 931 mg/dL; under setting [2], 926 mg/dL; under setting [3], 808 mg/dL; under setting [4], 847 mg/dL; under setting [5], 745 mg/dL.
